Screens from PubChem BioAssay.
Only some compounds are listed: those with a hit (about 2.2% of all), similar ones and a draw of the others.
B2AR arrestin: recruits beta-arrestin to the human beta2-adrenergic receptor; beta-arrestin recruitment to beta2AR, cell-based reporter; AID 492947; Potency, µM (doses to about 46.1 µM), for inactives: top-dose activation, actives largely listed as activators; 0.02% of 330,000 active;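 note: potency is the fitted concentration of half-maximal effect; 0% = DMSO controls and full agonism = EC100 isoproterenol or metaproterenol; nearly all actives have a fitted effect of over 65% in size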
Nrf2 block: blocks Nrf2 signaling; Potency, µM (titrated, usually from 46 µM), inactives show at the top dose activity change, negative = inhibition, hits mostly inhibitors; 2.1% of 360,000 active; AID 504444; A549 ARE-Fluc reporter, luciferase luminescence, 18-24 h; note: potency is the fitted concentration of half-maximal effect; % is set by controls: 0 for no effect and ±100 for the full control effect; nearly all actives have a fitted effect of over 60% in size
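Two sequential reads on A549 ARE_Fluc cells exposed to compound for 18-24 h: a CellTiter-Fluor fluorescence read for viability, then a luciferase luminescence read for Nrf2/ARE activity.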
Nrf2 activator: activators of Nrf2 (ARE) signaling. 0.31% of 410,000 active. AREc32 ARE-luciferase reporter (MCF7-derived line), luminescence, 24 h. Potency, µM (series often up to 46.1 µM), for the others: at the highest dose activation, most hits filed as activators; note: potency is the fitted concentration of half-maximal effect; % of control where 0% means no effect; nearly all actives have a fitted effect of over 65% in size
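Each well held 1000 AREc32 cells, which were incubated with compound for 24 hr at 37 deg C after overnight attachment, and ARE reporter activity was quantified by firefly luciferase luminescence.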
A549 viability: counter-screen for Nrf2 inhibitors: cytotoxicity in A549 cells; AID 504648; A549 ARE-Fluc cells, CellTiter-Fluor viability, 18-24 h; Potency, µM (titrated, usually from 46 µM), for inactives: at the top dose activity change, negative = cytotoxicity, most hits filed as inhibitors; 0.16% of 390,000 active; note: potency is the fitted concentration of half-maximal effect; % is set by controls: 0 for no effect and ±100 for the full control effect
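Cytotoxicity counterscreen: CellTiter-Fluor fluorescence was measured in A549 ARE_Fluc cells after 18-24 h of compound exposure in a concentration series. The subsequent BugLite luminescent read reports ARE-luciferase activity.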
miR-21 FLuc: miR-21 reporter, rising signal; Potency, µM (doses to about 38.3 µM), without a hit: at the top dose reporter change, positive = more light; HeLa miR-21 FLuc reporter, luciferase, 48 h; 340,000 tested, under 10 active; active = well fitted rising curve with a large enough effect; inconclusive = small, poorly fitted or top-dose-only effect; inactive = no such curve, though single readings can be large or run the other way;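 further: % of control where 0% means no effect; miR-21 action dims this reporter so a rising signal means less miR-21 action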
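Using DMEM plus 10% FBS, HeLa miR-21-FLuc cells are incubated with test compounds (final up to about 40uM) for 48 hours; firefly luciferase signal is then imaged following reagent-mediated lysis.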
An asterisk follows results filed as active; ? = inconclusive; nt = not tested or not shown; [ ] = dose if it differs, or a comment. Calls come from the whole dose curve; as a rule, active = well fitted curve in the direction sought with a large enough effect; inconclusive = small, poorly fitted or top-dose-only effect, or another doubt; inactive = no such curve, though single readings can be large; an effect the other way counts as inactive or inconclusive.

Every second line gives: B2AR arrestin | Nrf2 block | Nrf2 activator | A549 viability | miR-21 FLuc
(1) O=S(=O)(c1ccc(NC(=S)NCc2cccnc2)cc1)N1CCCCC1
→ 0.3% | 23.1µM* | 0.2% | -21.8% | ?
(2) O=C(NCc1cccnc1)c1ccc(S(=O)(=O)N2CCCCC2)cc1
→ 0.2% | ? | -0.5% | -0.2%[1.84 µM] | 7.9%
(3) Cc1ccc(C(=O)NCCC(C)C)cc1NC(=O)c1nsc2ccccc12
→ nt | nt | 3.3% | 11.7% | -22.7%
(4) COc1ccccc1/C=N\Nc1ccccc1[N+](=O)[O-]
→ 0.0% | ? | ? | -12.1% | -67.2%
(5) CC(C)Oc1ccccc1/C=N/Nc1ccccc1[N+](=O)[O-]
→ -0.5% | 15.1% | 10µM* | -1.6% | -2.0%
(6) COc1cc(/C=N/Nc2ccccc2[N+](=O)[O-])cc(OC)c1O
→ 0.1% | -20.3% | 10µM* | -18.6% | -34.8%
(7) O=c1[nH]nc(CNc2cccc(C(F)(F)F)c2)c2ccccc12
→ -0.2% | 13µM* | 3.0% | 0.0% | 7.2%
(8) COc1ccc(NCc2n[nH]c(=O)c3ccccc23)cc1
→ 3.3% | -27.1% | 0.4% | -1.5% | -43.5%
(9) Cc1ccc(CNC(=O)CN2C(=O)CSc3ccc(S(=O)(=O)N4CCCC4)cc32)cc1
→ nt | ? | 0.2% | 4.0% | -2.5%
(10) CCCN1/C(=C2/SC(=S)N(CC)C2=O)C=Cc2ccccc21
→ -0.1% | ? | 0.7% | 18.4µM* | 0.1%

Nrf2 activator, what is marked active above
no.	SMILES	B2AR arrestin	Nrf2 activator	miR-21 FLuc
5	CC(C)Oc1ccccc1/C=N/Nc1ccccc1[N+](=O)[O-]	-0.5%	10µM*	-2.0%
6	COc1cc(/C=N/Nc2ccccc2[N+](=O)[O-])cc(OC)c1O	0.1%	10µM*	-34.8%

Other records
Every second line gives: B2AR arrestin | Nrf2 block | Nrf2 activator | A549 viability | miR-21 FLuc
(11) CCN1C(=O)/C(=C2/C=Cc3ccccc3N2CC)SC1=S
→ 0.1% | 6.1% | ? | ? | -21.2%
(12) CCCN1C(=O)/C(=C2/C=Cc3ccccc3N2CC)SC1=S
→ -0.1% | -27.9% | 8.3% | 14.6µM* | -0.3%
(13) CN1C(=O)/C(=C2/C=Cc3ccccc3N2CCCS(=O)(=O)O)SC1=S
→ -0.2% | -7.6% | 8.1% | 20.6µM* | -4.0%
(14) O=c1oc2cc(O)ccc2s1
→ 0.0% | 13µM* | ? | 1.5% | nt
(15) O=c1c(O)c(-c2ccc(O)cc2O)oc2cc(O)cc(O)c12
→ -0.7% | nt | nt | nt | -10.1%
(16) Cc1cc(C)cc(NC(=O)Cn2c3ncccc3c(=O)n2-c2ccc(C)c(C)c2)c1
→ nt | 0.0% | -0.7% | -0.4% | 1.9%
(17) O=C(c1cccs1)N1CCCc2cc(NS(=O)(=O)c3ccc(Br)cc3)ccc21
→ nt | nt | -1.1% | -7.1% | 12.6%
(18) CC1(C)O[C@@H]2C[C@H]3[C@@H]4CCC5=CC(=O)C=C[C@]5(C)[C@@]4(F)[C@@H](O)C[C@]3(C)[C@]2(C(=O)CO)O1
→ -1.2% | 0.0041µM* | 0.0% | -0.7% | -28.6%
(19) CC1(C)OC2CC3C4CCC5=CC(=O)CCC5(C)C4(F)C(O)CC3(C)C2(C(=O)CO)O1 (stereo unspecified)
→ nt | 0.0052µM* | 0.6% | -6.5% | nt
(20) CN(C)C1CCN(Cc2cc(COCc3ccccc3)c3cccnc3c2O)C1 (stereo unspecified)
→ 3.6% | 20.6µM* | 4.3% | -12.4% | nt
(21) Oc1c(CN2CCCCC2)cc(COCc2ccccc2)c2cccnc12
→ ? | ? | 7.6% | ? | ?
(22) CC(C)CC(=O)N1CCN(Cc2ccc3ccccc3c2)CC1
→ 0.1% | ? | 0.6% | -2.4% | 4.7%
(23) CSc1ccc(CN2CCN(Cc3ccc([N+](=O)[O-])cc3)CC2)cc1
→ 0.2% | 8.2µM* | 3.9% | -11.3% | 17.2%
(24) CSc1ccc(CN2CCN(C(=O)CC(C)C)CC2)cc1
→ -0.4% | 25.9µM* | -0.6% | 0.4% | 7.0%
(25) O=[N+]([O-])c1ccc(CN2CCCCCC2)cc1
→ -0.7% | 6.9% | -0.4% | -0.4% | -0.4%
(26) CC(C)COc1ccc(C(=O)Nc2cccc(-c3nc4ccccc4[nH]3)c2)cc1
→ nt | 23.1µM* | -1.3% | -18.1% | 19.8%
(27) Cc1ccccc1S(=O)(=O)Cc1ccc(C(=O)N2CCN(c3cccc(C)c3C)CC2)o1
→ -0.1% | 10.3µM* | -0.6% | ? | 27.9%
(28) Cc1ccccc1S(=O)(=O)Cc1ccc(C(=O)N2CCN(c3cccc(Cl)c3)CC2)o1
→ nt | 18.4µM* | -0.3% | -22.8% | ?
(29) Cc1cc2c(s1)c1cnn(Cc3ccc(C(C)(C)C)cc3)c(=O)c1n2C
→ nt | 8.5% | nt | 0.1% | nt
(30) Cc1nn(-c2ccc(F)cc2)c(-n2cccc2)c1C(=O)NCCCN1CCN(c2cccc(Cl)c2)CC1
→ nt | ? | -3.8% | -12.6% | ?
(31) CCOc1ccc(CCNC(=O)CCc2c(C)nc3c4c(C)cc(C)nc4nn3c2C)cc1
→ nt | 8.8% | 0.2% | -6.2% | -0.6%
(32) CC1CC(C)(C)CC2(C1)NC(=O)N(CC(=O)N1CCN(S(=O)(=O)c3cccs3)CC1)C2=O (stereo unspecified)
→ -1.0% | -3.6% | -0.9% | -1.6% | nt
(33) Cc1cccc(NC(=O)CN2CCN(C(=O)CN3C(=O)NC4(CC(C)CC(C)(C)C4)C3=O)CC2)c1C (stereo unspecified)
→ nt | 16.4µM* | 0.3% | -11.2% | nt
(34) CC1CC(C)(C)CC2(C1)NC(=O)N(CC(=O)Nc1c(F)cccc1F)C2=O (stereo unspecified)
→ -0.7% | 3.8% | -0.4% | -0.8% | nt
(35) CC1CC(C)(C)CC2(C1)NC(=O)N(CC(=O)N1CCN(Cc3ccc(C#N)cc3)CC1)C2=O (stereo unspecified)
→ -0.1% | 1.84µM* | 0.0% | -13.7% | nt
(36) c1ccc(CNc2ncnc3c2ncn3Cc2ccccc2)cc1
→ nt | -17.7% | nt | -0.2% | nt
(37) CCOc1ccc(C(=O)NCCn2cc(SCC(=O)NCCc3ccc(OC)c(OC)c3)c3ccccc32)cc1
→ nt | -30.0% | 10.8% | -8.9% | 26.8%
(38) S=C(N/N=C/c1ccco1)NC1CC2CCC1C2 (stereo unspecified)
→ ? | ? | 12.6µM* | 3.0% | -52.1%
(39) CCCCN(CC)C(=O)CSc1nc2ccccc2c(=O)n1Cc1ccco1
→ nt | nt | 2.6% | -10.6% | 29.2%
(40) COc1ccc(Cl)cc1NC(=O)CN(C)C(=O)CCC(=O)c1cc(C)sc1C
→ -1.1% | 8.2µM* | 10.5% | 16.4µM* | nt

Given in markdown: entries from further up
| nr | mol | B2AR arrestin | Nrf2 block | Nrf2 activator | A549 viability | miR-21 FLuc |
| --- | --- | --- | --- | --- | --- | --- |
| 30 | Cc1nn(-c2ccc(F)cc2)c(-n2cccc2)c1C(=O)NCCCN1CCN(c2cccc(Cl)c2)CC1 | nt | ? | -3.8% | -12.6% | ? |
| 31 | CCOc1ccc(CCNC(=O)CCc2c(C)nc3c4c(C)cc(C)nc4nn3c2C)cc1 | nt | 8.8% | 0.2% | -6.2% | -0.6% |
| 32 | CC1CC(C)(C)CC2(C1)NC(=O)N(CC(=O)N1CCN(S(=O)(=O)c3cccs3)CC1)C2=O (stereo unspecified) | -1.0% | -3.6% | -0.9% | -1.6% | nt |

(list continues)
Every second line gives: B2AR arrestin | Nrf2 block | Nrf2 activator | A549 viability | miR-21 FLuc
(41) CCCCc1nn2c(=O)cc(COC(=O)c3cccs3)nc2s1
→ nt | 16.8% | 4.6% | -1.5% | -21.3%
(42) O=C(NC(Nc1nc2ccc([N+](=O)[O-])cc2s1)(C(F)(F)F)C(F)(F)F)c1cccnc1
→ -0.4% | 5.8µM* | -1.4% | 7.31µM* | 26.6%
(43) O=C(NC(Nc1nc2ccc([N+](=O)[O-])cc2s1)(C(F)(F)F)C(F)(F)F)c1ccccc1Cl
→ -0.2% | 1.84µM* | -0.4% | 5.8µM* | 29.5%
(44) CN(C)S(=O)(=O)c1ccc2nc(NC(=O)c3cccnc3)sc2c1
→ nt | ? | -0.4% | 2.4% | -30.6%
(45) CC(NC(=O)c1ccc2c(=O)n3c(nc2c1)CCC3)c1ccc(S(N)(=O)=O)cc1 (stereo unspecified)
→ 0.1% | 11.9% | -0.1% | 5.2% | nt
(46) O=C(Nc1ccc(SC(F)F)cc1)c1ccc2c(=O)n3c(nc2c1)CCC3
→ 0.1% | 5.8µM* | 6.7% | ? | nt
(47) O=C(Nc1ccccc1Cl)c1ccc2c(=O)n3c(nc2c1)CCC3
→ 0.1% | ? | -1.2% | 2.2% | nt
(48) O=C(Nc1ccc(S(=O)(=O)C(F)F)cc1)c1ccc2c(=O)n3c(nc2c1)CCC3
→ -0.3% | 14.6µM* | 2.0% | -10.4% | nt
